Structures are written as SMILES. The entries are a selection whose mix differs from that of the whole data set. Active and inactive are the calls of the source.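 How the source made its calls: active means activation above a run cutoff, the mean activation of all tested compounds plus 3 SD (cut at about 14% in these data); inactive means the rest.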

The chains behind the UniProt entries cited, without tags or fusion partners.
UniProt P35363, whole entry: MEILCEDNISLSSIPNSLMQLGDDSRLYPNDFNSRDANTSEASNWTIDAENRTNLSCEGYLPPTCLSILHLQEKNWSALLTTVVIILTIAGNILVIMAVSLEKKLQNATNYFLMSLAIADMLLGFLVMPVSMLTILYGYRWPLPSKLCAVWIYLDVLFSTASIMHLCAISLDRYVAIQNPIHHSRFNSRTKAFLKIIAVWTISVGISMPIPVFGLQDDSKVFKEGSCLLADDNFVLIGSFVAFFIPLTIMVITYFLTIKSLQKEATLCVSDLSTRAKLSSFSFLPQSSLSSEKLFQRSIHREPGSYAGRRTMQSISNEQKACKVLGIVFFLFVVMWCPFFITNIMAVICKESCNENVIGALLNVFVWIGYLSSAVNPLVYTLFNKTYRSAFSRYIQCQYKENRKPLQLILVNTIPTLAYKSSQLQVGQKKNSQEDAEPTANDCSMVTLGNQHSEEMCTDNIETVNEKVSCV

The target of the test is 5-hydroxytryptamine receptor 2A (Mus musculus) (UniProt P35363). The test can be described thus: mouse Htr2a agonists via beta-arrestin recruitment, primary screen, cell-based, luminescence (AID 624169).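 Further: 0% = plate median of compound wells and 100% = 30 µM serotonin.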 Conditions: CHO-K1 mHTR2A beta-arrestin complementation, at 7.6 µM, active compounds read high, percent of 30 µM serotonin response.
Turning to `CCC(=O)N(c1ccccc1)C1(COC)CCN(CCn2nnn(CC)c2=O)CC1`, the activation was inactive: -2.56%.
As to `CCC(=O)N(c1ccccc1)C1(COC)CCN(CCc2cccs2)CC1`, the activation is inactive: -1.17%.

Values taken from PubChem BioAssay AID624169 (The Scripps Research Institute Molecular Screening Center, 2012).
